Consider 1 compound from publication PMC12775434, “Ultra-large virtual screening unveils potent agonists of the neuromodulatory orphan receptor GPR139” (Nature Communications, 2025).

By UniProt entry, the sequences of proteins in these tests, tags left out.
UniProt Q6DWJ6, whole entry: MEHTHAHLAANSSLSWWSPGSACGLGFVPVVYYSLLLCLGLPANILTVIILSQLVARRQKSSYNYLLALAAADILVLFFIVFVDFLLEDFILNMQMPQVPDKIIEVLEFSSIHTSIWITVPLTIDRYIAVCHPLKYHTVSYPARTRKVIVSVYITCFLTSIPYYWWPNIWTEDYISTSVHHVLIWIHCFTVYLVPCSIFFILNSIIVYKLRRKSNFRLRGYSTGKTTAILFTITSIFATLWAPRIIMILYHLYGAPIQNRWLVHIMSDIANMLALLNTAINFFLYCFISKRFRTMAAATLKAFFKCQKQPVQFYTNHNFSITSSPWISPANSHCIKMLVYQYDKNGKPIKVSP

A word on the EC50: it is the concentration that produces a half-maximal response.

Structures are written as SMILES.

The assay addresses human GPR139 (Homo sapiens, UniProt Q6DWJ6). As to the kind of experiment: Ca2+ mobilization assay, agonist mode, stable GPR139-CHOk1 cell line. Type of assay: cell-based. A general note: A change in cytosolic calcium serves as a functional read-out for many receptors and channels.

For the compound `C[C@H](NC(=O)Cn1cncc(-c2ccccc2)c1=O)c1ccccc1`, the EC50 (read-out: EC50, Ca2+ mobilization, GPR139-CHOk1) was 540 nM. Moreover, the “Emax, Ca2+ mobilization” value (relative to Lundbeck Cmp 1a) amounted to 122%.
